In PubChem BioAssay AID583 (Sanford-Burnham Center for Chemical Genomics, 2007):
This is a selection; strong and weak results do not stand in their true shares. Calls of active or inactive are those of the source. Cut-off read from the data, not from the text of the source: active = displacement above about 50%; inactive = the rest.

Protein sequences, listed by entry. Tags and fused reporters are not part of them.
UniProt P0DMV8, whole entry: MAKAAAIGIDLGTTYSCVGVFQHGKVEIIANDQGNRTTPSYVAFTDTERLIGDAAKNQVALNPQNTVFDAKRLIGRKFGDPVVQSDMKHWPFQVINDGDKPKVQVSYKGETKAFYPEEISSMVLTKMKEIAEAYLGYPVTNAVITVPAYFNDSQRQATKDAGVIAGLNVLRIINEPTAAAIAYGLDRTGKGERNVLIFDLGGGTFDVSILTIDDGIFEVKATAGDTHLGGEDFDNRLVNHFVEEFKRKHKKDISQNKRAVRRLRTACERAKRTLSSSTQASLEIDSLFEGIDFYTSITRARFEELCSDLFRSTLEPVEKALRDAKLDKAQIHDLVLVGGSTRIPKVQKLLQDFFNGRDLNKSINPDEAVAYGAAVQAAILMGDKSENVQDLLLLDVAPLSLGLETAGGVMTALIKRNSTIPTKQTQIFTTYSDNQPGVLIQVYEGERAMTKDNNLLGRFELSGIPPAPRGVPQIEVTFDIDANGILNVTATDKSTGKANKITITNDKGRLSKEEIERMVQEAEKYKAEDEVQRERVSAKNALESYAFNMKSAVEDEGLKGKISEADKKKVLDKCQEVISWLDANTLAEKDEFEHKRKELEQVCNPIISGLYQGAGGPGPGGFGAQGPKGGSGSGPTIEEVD

What follows are compounds tested against Heat shock 70 kDa protein 1A (Homo sapiens) (UniProt P0DMV8) (assay: Hsp70 inhibitors, probe displacement, primary screen, biochemical, fluorescence polarization (AID 583;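 note: plate controls were vehicle for no effect and reference ligand for full effect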)). Settings: mP, at 20 µM, active compounds read high.

Row | Compound | displacement
1 | CCc1ccc(OP(C)(=O)O)cc1 | inactive: -1.9%
